Results: US20070264623A1, “Nanosensors” (PRESIDENT AND FELLOWS OF HARVARD COLLEGE, priority 2004, published 2007)
Read-outs that look alike come from different tables or passages of the source.

Amino acid sequences for entries named in this document (tags omitted). Residues count along the entry.
UniProt P00519, whole entry: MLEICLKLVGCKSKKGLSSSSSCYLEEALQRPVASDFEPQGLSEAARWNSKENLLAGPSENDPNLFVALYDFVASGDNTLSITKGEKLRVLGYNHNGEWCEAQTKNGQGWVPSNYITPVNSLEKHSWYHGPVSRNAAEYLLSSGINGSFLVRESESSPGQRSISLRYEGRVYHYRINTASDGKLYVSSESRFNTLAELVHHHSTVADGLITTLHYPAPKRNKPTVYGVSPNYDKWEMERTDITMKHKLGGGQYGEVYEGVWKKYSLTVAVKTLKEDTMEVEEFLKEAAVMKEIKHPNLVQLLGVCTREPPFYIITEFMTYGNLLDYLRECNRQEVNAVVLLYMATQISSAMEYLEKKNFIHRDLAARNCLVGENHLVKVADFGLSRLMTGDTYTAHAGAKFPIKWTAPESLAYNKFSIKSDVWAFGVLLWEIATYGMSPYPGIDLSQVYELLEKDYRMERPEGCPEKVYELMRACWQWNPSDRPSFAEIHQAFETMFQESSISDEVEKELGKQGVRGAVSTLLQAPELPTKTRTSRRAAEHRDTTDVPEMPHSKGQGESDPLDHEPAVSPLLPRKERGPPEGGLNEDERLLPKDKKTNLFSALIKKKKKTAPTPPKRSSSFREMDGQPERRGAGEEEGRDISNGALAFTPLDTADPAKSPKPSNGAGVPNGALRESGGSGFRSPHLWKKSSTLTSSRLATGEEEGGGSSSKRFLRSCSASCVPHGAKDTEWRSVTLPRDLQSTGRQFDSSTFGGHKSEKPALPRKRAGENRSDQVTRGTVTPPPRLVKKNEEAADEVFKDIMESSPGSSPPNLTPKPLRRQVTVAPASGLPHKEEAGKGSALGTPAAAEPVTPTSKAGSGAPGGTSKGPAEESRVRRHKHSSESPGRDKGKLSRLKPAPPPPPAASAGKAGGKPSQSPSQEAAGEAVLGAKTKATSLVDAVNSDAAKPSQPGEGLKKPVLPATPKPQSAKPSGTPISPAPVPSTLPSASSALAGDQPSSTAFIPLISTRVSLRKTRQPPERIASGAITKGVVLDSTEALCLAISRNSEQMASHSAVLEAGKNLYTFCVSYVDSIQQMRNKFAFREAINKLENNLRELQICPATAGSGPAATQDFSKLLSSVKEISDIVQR
UniProt P00521, 128-379 limits assumed: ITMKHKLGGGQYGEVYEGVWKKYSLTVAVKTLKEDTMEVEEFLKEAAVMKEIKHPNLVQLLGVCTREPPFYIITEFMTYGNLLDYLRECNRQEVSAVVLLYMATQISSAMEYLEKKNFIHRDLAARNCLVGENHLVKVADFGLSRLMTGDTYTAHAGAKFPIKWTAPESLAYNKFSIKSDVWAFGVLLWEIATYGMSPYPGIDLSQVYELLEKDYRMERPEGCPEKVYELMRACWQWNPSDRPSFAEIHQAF

What was measured:
Abl = Abl (Homo sapiens, UniProt P00519); conditions: read-out: reported inhibition constant; reported value; cited from earlier work
Abl tyrosine kinase = Abl tyrosine kinase (Abelson murine leukemia virus, UniProt P00521)
[1] = read-out: inhibition constant, estimated from linear region of normalized delta-G vs. small molecule concentration, fixed 100 nM ATP

SMILES | Ki (Abl) [nM] | Ki (Abl tyrosine kinase; [1]) [nM] | Ki (Abl tyrosine kinase) [nM]
COC(=O)c1ccc(NCc2cc(O)ccc2O)cc1 | 9000 | 1000 | 
Cc1ccc(N)cc1Nc1nccc(-c2cccnc2)n1 | 1500 | 80 | 
Cc1ccc([N+](=O)[O-])cc1Nc1nccc(-c2cccnc2)n1 |  |  | 110
